Test results from patent publication US20240325396A1, “METHODS FOR TREATING CANCER” (Allarity Therapeutics, Inc., priority 2023, published 2024).
Like-named read-outs stand apart in the source and are kept apart here.

System: murine lymphocytic leukemia parent cell line P388/S
Assay: Proliferation of P388/S parent line with or without verapamil
Conditions: Mus musculus

Q: With `O=c1[nH]nc2c3c(cccc13)N=C(CN1Cc3ccccc3C1)N2` [stenoparib, 8-(isoindolin-2-ylmethyl)-2,9-dihydro-3H-pyridazino [3,4,5-de] quinazolin-3-one] as the compound, how does the IC50 (read-out: IC50, inhibition of proliferation, P388/S, with P-gp antagonist verapamil) read?
A: The IC50 was 2340 nM.

Q: And the IC50 (read-out: IC50, inhibition of proliferation, P388/S, without verapamil)?
A: Its IC50 is 2140 nM.
